{"sequences": {"note": "Amino acid sequences for entries named in this document (tags omitted).", "UniProt Q6Q2J0, whole entry": "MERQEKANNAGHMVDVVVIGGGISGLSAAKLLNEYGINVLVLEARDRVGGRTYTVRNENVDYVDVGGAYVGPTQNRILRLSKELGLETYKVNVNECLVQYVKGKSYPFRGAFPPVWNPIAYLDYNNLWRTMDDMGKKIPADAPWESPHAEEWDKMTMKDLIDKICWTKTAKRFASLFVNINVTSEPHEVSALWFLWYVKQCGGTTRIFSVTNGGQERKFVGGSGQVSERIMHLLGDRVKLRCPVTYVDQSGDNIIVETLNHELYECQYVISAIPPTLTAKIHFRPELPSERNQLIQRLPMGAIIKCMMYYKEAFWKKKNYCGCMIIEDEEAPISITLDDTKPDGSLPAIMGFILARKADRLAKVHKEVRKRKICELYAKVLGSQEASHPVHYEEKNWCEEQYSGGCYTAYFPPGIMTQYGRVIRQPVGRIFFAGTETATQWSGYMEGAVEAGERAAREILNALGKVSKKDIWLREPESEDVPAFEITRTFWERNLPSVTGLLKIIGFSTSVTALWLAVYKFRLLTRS"}, "source": "paper PMC10294837", "about": "(2023)", "key": {"[1]": {"tested_on": "complex I-linked respiration in isolated mitochondria", "assay": "Complex I-linked respiration, high-resolution respirometry in isolated mitochondria"}, "MAO-A": {"target": "MAO-A (Sus scrofa, UniProt Q6Q2J0)", "assay": "MAO-A activity, radiolabeled [3H]serotonin substrate, pig brain mitochondria", "type": "biochemical"}}, "note": "Where two headings read alike, the source gives them in different places.", "data": [{"smiles": "O=c1n(CCCN2CCN(c3cccc(Cl)c3)CC2)nc2ccccn12", "note": "[trazodone]", "values": [{"measurement": "Inhibition (partial/full), complex I-linked respiration", "setting": "[1]", "result": "partial"}, {"measurement": "Residual Activity, complex I-linked respiration", "setting": "[1]; mean ± SEM, four measurements", "result": "0.815 ± 0.015", "unit": "rel.u."}, {"measurement": "Inhibition (partial/full), MAO-A", "setting": "MAO-A", "result": "partial"}, {"measurement": "Inhibition (partial/full), MAO-A", "setting": "MAO-A; listed as TRA", "result": "partial inhibitors"}, {"measurement": "Hill Slope, MAO-A", "setting": "MAO-A; mean ± SEM, four measurements", "result": "1.23 ± 0.22"}, {"measurement": "Residual Activity, MAO-A", "setting": "MAO-A; mean ± SEM, four measurements", "result": "0.184 ± 0.042", "unit": "rel.u."}]}]}
